In the antibiotic and cytotoxicity screens of Wong et al. (2023):
For part of these data: The hits were mostly taken out for another list; the other results follow. The entries are a selection whose mix differs from that of the whole data set.

Each compound was assayed on HSkMC (human skeletal muscle cells) (assay: cytotoxicity call (relative viability < 0.9)). Details: 10 µM.

| SMILES | cytotoxicity call |
| --- | --- |
| COc1c2ccccc2nc2occc12 | inactive |
| c1ccc(-c2ccccn2)cc1 | inactive |
| COc1cc(Br)c(C[N+]2(CCOCC[C@H]3CC[C@@H]4C[C@H]3C4(C)C)CCOCC2)cc1OC | inactive |

What follows are compounds tested on HepG2 (assay: cytotoxicity call (relative viability < 0.9)). Details: 10 µM.

| SMILES | cytotoxicity call |
| --- | --- |
| COc1c2ccccc2nc2occc12 | active |
| c1ccc(-c2ccccn2)cc1 | inactive |
| COc1cc(Br)c(C[N+]2(CCOCC[C@H]3CC[C@@H]4C[C@H]3C4(C)C)CCOCC2)cc1OC | inactive |

What follows are compounds tested on S. aureus RN4220 (assay: growth inhibition call (relative growth <= 0.2)). Details: 50 µM.

| SMILES | growth inhibition call |
| --- | --- |
| COc1c2ccccc2nc2occc12 | inactive |
| c1ccc(-c2ccccn2)cc1 | inactive |
| COc1cc(Br)c(C[N+]2(CCOCC[C@H]3CC[C@@H]4C[C@H]3C4(C)C)CCOCC2)cc1OC | active |
